Literature values, collected in US11529340B2 (priority 2016, dated 2022).

Sequences of proteins named here, by UniProt entry; tags and fusion partners are left off.
UniProt P21447, whole entry, looked up: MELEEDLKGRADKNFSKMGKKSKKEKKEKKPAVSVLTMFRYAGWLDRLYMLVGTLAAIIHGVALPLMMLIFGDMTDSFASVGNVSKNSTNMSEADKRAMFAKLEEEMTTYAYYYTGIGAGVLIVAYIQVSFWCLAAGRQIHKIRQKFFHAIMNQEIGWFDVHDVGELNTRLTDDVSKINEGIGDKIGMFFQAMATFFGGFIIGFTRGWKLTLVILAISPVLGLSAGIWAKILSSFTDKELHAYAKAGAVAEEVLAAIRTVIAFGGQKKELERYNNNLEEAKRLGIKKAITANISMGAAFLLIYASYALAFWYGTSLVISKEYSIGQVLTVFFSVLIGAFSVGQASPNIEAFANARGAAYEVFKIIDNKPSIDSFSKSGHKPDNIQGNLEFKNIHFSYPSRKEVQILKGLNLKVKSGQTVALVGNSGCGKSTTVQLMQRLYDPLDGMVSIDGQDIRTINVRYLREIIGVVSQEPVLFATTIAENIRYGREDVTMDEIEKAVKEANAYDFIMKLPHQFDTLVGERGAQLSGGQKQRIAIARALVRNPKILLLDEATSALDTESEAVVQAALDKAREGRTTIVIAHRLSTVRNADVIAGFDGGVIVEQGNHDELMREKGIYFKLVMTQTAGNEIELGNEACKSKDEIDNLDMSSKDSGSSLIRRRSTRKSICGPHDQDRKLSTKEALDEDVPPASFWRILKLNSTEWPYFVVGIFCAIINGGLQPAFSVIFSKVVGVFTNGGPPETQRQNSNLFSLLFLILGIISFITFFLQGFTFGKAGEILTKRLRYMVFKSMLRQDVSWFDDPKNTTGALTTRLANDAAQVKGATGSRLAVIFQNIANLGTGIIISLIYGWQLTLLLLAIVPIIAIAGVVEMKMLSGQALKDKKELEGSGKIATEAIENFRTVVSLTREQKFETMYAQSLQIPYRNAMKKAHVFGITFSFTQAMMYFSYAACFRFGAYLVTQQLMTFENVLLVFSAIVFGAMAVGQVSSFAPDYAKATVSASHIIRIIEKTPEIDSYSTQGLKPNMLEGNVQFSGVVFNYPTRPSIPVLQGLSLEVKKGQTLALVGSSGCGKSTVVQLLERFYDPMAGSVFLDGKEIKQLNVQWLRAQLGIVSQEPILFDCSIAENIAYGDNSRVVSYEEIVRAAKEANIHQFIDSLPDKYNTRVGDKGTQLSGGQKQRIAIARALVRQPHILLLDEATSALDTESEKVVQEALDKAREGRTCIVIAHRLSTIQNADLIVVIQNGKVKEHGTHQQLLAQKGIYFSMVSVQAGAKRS

Target: p-glycoprotein (P-gp) (Mus musculus, UniProt P21447)
Conditions: relative to morphine, fentanyl and meperidine; cited from earlier work

Compound: CN(C)C(=O)C(CCN1CCC(O)(c2ccc(Cl)cc2)CC1)(c1ccccc1)c1ccccc1 [loperamide]
- susceptibility to export from the CNS by P-gp: almost ten times that of morphine, fentanyl and meperidine
